{"sequences": {"note": "Protein sequences, listed by entry. Tags and fused reporters are not part of them.", "UniProt P23977, whole entry": "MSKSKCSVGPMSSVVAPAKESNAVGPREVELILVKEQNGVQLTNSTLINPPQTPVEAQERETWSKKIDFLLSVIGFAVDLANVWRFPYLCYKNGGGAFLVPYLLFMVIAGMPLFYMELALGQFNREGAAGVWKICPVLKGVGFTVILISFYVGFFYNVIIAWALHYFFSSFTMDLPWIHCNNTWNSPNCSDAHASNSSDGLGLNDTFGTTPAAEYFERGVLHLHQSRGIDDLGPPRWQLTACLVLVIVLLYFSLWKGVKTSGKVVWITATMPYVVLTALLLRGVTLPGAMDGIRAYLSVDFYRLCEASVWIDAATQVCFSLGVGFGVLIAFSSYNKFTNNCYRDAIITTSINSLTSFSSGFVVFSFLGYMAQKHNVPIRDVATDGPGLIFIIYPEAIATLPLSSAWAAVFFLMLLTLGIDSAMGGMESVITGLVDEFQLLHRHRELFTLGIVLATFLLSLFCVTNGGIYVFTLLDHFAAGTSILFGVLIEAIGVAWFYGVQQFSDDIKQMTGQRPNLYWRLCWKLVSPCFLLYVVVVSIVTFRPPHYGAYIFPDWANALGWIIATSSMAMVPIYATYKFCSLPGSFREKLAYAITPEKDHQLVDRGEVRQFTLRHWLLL", "UniProt P31652, whole entry": "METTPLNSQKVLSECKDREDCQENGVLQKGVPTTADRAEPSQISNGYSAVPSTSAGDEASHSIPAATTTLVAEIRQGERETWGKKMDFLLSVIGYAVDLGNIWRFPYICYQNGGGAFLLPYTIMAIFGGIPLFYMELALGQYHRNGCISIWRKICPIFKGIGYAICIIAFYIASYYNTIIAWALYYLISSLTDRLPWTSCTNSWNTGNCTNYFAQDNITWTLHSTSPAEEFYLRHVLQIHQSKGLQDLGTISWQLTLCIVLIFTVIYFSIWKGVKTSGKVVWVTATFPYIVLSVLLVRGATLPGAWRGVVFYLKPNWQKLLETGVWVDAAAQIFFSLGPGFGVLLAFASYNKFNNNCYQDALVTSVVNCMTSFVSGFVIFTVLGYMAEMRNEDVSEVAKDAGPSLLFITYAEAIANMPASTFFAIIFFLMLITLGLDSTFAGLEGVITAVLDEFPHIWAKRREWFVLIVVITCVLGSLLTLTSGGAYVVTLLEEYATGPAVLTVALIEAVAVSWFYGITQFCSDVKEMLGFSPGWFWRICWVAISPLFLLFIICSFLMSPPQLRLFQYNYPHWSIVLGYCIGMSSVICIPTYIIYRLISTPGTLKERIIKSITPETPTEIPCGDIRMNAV"}, "source": "patent US20020115727A1", "about": "“Synthesis, methods of using, and compositions of hydroxylated cyclobutylalkylamines” (priority 2000, published 2002)", "origin": "cited, not measured here", "key": {"[1]": {"target": "T1, functional uptake of dopamine (DA) into synaptosomes prepared from rat corpora striata (Rattus norvegicus, UniProt P23977)", "T1 construct": "into synaptosomes prepared from rat whole brain, hypothalamus, or corpora striata, respectively; from tissue; host or cells: rat corpora striata synaptosomes", "conditions": "read-out: IC50 for inhibition of uptake of DA; reported values, basis of comparison; cited from earlier work"}, "[2]": {"target": "T2, functional uptake of serotonin (5-HT) into synaptosomes prepared from rat whole brain (Rattus norvegicus, UniProt P31652)", "T2 construct": "into synaptosomes prepared from rat whole brain, hypothalamus, or corpora striata, respectively; from tissue; host or cells: rat whole brain synaptosomes", "conditions": "read-out: IC50 for inhibition of uptake of 5-HT; reported values, basis of comparison; cited from earlier work"}}, "data": [{"smiles": "CN[C@H](CC(C)C)C1(c2ccc(Cl)cc2)CCC1", "note": "[(R)-DMS]", "values": [{"measurement": "IC50", "setting": "[1]", "value": 12, "unit": "nM"}, {"measurement": "IC50", "setting": "[2]", "value": 44, "unit": "nM"}]}, {"smiles": "CC(C)C[C@@H](N)C1(c2ccc(Cl)cc2)CCC1", "note": "[(R)-DDMS]", "values": [{"measurement": "IC50", "setting": "[1]", "value": 8.9, "unit": "nM"}]}, {"smiles": "CC(C)C[C@H](N)C1(c2ccc(Cl)cc2)CCC1", "note": "[(S)-DDMS]", "values": [{"measurement": "IC50", "setting": "[1]", "value": 12, "unit": "nM"}]}, {"smiles": "CN[C@@H](CC(C)C)C1(c2ccc(Cl)cc2)CCC1", "note": "[(S)-DMS]", "values": [{"measurement": "IC50", "setting": "[1]", "value": 180, "unit": "nM"}]}]}
